Ab-95 light chain CDR variants: yeast mating affinities

From the AlphaSeq antibody data of Engelhart et al. 2022 (doi:10.1038/s41597-022-01779-4), copy in the FLAb collection.

Target: peptide PDVDLGDISGINAS, taken from heptad repeat 2 (HR2) of SARS-CoV-2 spike.

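The parent was found by panning a naive human phage display library on the peptide. AAYL52 was designed without a model: most single CDR substitutions and a random sample of double and triple ones. The assay is AlphaSeq: two haploid yeast populations carry antibody and antigen on their surface. Binding brings cells together so that they mate, and sequencing counts the barcode pairs among the diploids. Each replicate has its own calibration line, from reference interactions of the BCL2 family. Mating was done three times.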

Parent scFv Ab-95: VH joined to VL by the linker GGGGSGGGGSGGGGS. Changes lie in the light chain CDRs alone.
VH: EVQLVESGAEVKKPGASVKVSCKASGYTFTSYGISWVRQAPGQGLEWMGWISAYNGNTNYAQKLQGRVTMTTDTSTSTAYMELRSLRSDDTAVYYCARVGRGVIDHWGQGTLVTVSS
VL: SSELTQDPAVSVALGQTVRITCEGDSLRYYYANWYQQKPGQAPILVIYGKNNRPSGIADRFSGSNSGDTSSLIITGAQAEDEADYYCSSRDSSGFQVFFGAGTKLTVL

Positions count from residue 1 of the parent VL; G49C puts C in place of G.
Values are log10 of the apparent Kd in nM; lower means stronger binding.
"ND" marks a missing value. The strain was present, yet no cells mated with the target were sequenced in that replicate, which points to weak or no binding.
In this assay the parent's reference entry averaged 2.31; its copy inside this library read 2.25.
Empty control strains, which show no peptide, gave a signal in 28% of pairings with library AAYL52; the median was 3.91 and 95% of these signals were weaker than 2.90. No background was subtracted. Also given: how often the same scFv was detected with the empty control strains, with their mean in brackets.

changes,log10 Kd (nM) by replicate,signal with controls
G49C+V97P,ND / ND / ND,1/9 (2.98)
A32P+S88A+R90P,1.45 / 0.73 / 1.15,2/9 (3.78)
Y31G+N52L+S89M,1.50 / 1.51 / 1.07,2/9 (3.62)
G49R+Q96T+V97T,3.44 / ND / ND,2/9 (4.54)
G49Y+N51W+G94F,ND / ND / ND,1/9 (4.33)
G24H+N52W+F95N,ND / 4.42 / 3.61,2/9 (3.34)
Y29W+S55F+D91T,3.55 / 4.42 / 3.27,3/9 (4.06)
R28I+R90Y+V97F,ND / 5.68 / ND,0/9
D25Q+G94I+F95C,2.59 / 2.59 / 2.78,4/9 (4.25)
A32W+S88Q,ND / ND / ND,1/9 (3.81)
G24K+D91S,4.20 / ND / 3.71,0/9
G24Q+S26E+D91S,2.24 / 2.02 / 3.23,3/9 (3.97)
S26M+G49P+D91P,3.84 / ND / ND,4/9 (3.59)
D91W+F95V+F98D,ND / ND / ND,3/9 (3.89)
G24S+K50P+R53W,3.81 / ND / ND,4/9 (3.54)
N51I+R53H+V97I,5.03 / 2.79 / ND,1/9 (3.37)
N51A+P54H+V97M,1.76 / 3.58 / ND,0/9
R28I+G49L,4.03 / ND / ND,3/9 (3.83)
Y29C+Y30F+S55P,3.13 / 2.86 / 2.42,2/9 (3.79)
Y31L+F95H+Q96H,2.88 / 2.99 / 2.56,4/9 (3.97)
E23D+Y31T+S92K,2.58 / 2.63 / 2.13,3/9 (4.08)
E23C+Y29T+S92A,2.11 / 2.02 / 1.75,3/9 (3.84)
S55P+G94K+V97N,ND / 4.83 / ND,1/9 (4.34)
Y30E+S92L+V97P,1.61 / 1.70 / 1.56,5/9 (3.98)
A32T+K50M+G94I,ND / ND / ND,1/9 (2.45)
G24A+L27Y+R90I,ND / 3.88 / 3.95,1/9 (4.97)
D25K+K50Q+D91M,1.85 / 3.14 / 3.13,2/9 (3.33)
D25T+N33I+S88R,4.20 / ND / ND,3/9 (3.72)
L27N+N51T+S93L,3.79 / 3.13 / ND,1/9 (5.08)
L27G+S89P+R90F,3.34 / 3.05 / 2.76,1/9 (3.59)
L27K+D91W,2.79 / 2.02 / 1.63,4/9 (4.12)
N52V+S92E+V97C,2.72 / 2.59 / 2.70,0/9
Y29N+D91T+F95E,2.61 / 2.42 / 1.87,7/9 (4.69)
S26M+Y29F,3.18 / 3.74 / ND,2/9 (3.62)
R28H+G49W+G94F,ND / ND / ND,0/9
N33A+S88D+D91P,5.81 / ND / ND,4/9 (4.01)
Y29P+N52A+F95K,3.39 / 3.68 / 2.79,3/9 (3.96)
N51Y+D91K+S92M,3.49 / 3.84 / 4.22,3/9 (3.53)
G24Y+S26N+Y29C,2.82 / ND / ND,1/9 (4.35)
E23L+P54R+S92N,ND / 3.36 / ND,1/9 (3.71)
G24H+Y30E+V97F,3.21 / 2.89 / 3.23,0/9

Picked from the list: the 4 lowest averages where every replicate gave a value.

changes	log10 Kd (nM) by replicate	signal with controls
A32P+S88A+R90P	1.45 / 0.73 / 1.15	2/9 (3.78)
Y31G+N52L+S89M	1.50 / 1.51 / 1.07	2/9 (3.62)
Y30E+S92L+V97P	1.61 / 1.70 / 1.56	5/9 (3.98)
E23C+Y29T+S92A	2.11 / 2.02 / 1.75	3/9 (3.84)